This passage reports Ki results from ChEMBL document CHEMBL5550116, “Discovery of novel macrocyclic derivatives as potent and selective cyclin-dependent kinase 2 inhibitors” (Bioorg Med Chem, 2024).

Amino acid sequences for entries named in this document (tags omitted). A change or cut given only in a name is not applied to a line headed by its entry.
UniProt P50750, whole entry: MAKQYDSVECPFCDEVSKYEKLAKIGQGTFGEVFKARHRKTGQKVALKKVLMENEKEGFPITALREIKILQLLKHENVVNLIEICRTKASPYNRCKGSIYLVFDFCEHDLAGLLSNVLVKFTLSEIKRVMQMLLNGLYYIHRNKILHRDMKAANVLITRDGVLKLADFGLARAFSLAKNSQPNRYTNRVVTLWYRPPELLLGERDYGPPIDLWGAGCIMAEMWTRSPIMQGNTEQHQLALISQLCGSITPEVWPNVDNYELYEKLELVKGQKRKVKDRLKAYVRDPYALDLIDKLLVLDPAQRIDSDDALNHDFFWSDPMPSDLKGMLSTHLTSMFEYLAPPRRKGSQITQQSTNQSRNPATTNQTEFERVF
UniProt Q00535, whole entry: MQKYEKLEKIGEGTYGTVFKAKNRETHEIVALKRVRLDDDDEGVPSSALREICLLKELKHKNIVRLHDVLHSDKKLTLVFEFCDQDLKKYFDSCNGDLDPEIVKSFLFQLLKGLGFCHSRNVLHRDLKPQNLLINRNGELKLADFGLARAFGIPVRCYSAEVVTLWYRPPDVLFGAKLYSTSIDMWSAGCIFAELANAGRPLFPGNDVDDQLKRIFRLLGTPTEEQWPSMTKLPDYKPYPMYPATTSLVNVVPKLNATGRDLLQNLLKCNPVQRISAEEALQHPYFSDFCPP
UniProt P50613: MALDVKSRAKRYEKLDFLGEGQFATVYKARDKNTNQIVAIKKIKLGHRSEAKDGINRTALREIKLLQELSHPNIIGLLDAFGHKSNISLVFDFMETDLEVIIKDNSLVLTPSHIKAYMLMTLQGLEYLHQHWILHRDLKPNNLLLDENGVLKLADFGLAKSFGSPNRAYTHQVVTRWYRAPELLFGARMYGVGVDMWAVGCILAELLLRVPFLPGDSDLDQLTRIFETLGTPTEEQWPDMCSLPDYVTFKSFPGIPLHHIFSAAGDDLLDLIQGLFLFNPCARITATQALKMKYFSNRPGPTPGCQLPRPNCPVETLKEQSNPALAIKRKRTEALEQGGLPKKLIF

pKi: −log10 of the molar value.

One test has as its target CDK9/cyclin T1 (Homo sapiens, UniProt P50750). In words: Inhibition of full-length recombinant N-terminal GST-tagged human CDK9 (1 to 372 residues)/His-tagged cyclinT1 (1 to 726 residues) expressed in baculovirus expression system using histone H1 as substrate preincubated for 10 mins followed by substrate and ATP addition and measured after 60 mins by ADP-Glo reagent based microplate reader assay. On the technique in general: ADP-Glo first removes unused ATP, then detects ADP through luciferase.

The target in test [1] is Cyclin-dependent kinase 5/CDK5 activator 1 (Homo sapiens, UniProt Q00535). The test can be described thus: Inhibition of human CDK5/p25NCK using histone H1 as substrate preincubated for 10 mins followed by substrate and ATP addition and measured after 60 mins by ADP-Glo reagent based microplate reader assay. It is filed as protein-complex assay.
Another test deals with CDK7/Cyclin H/MNAT1 (Homo sapiens, UniProt P50613). The test can be described thus: Inhibition of recombinant human His-tagged CDK7/cyclin H/MNAT1 expressed in baculovirus expression system using histone H1 as substrate preincubated for 10 mins followed by substrate and ATP addition and measured after 60 mins by ADP-Glo reagent based microplate reader assay.

As to `CC(C)c1cnn2c3nc(nc12)N(CC1CNC1)CCCCCOc1cc(S(C)(=O)=O)ccc1CN3`, the results for the pKi (on CDK9/cyclin T1; in test [1]; at CDK7/Cyclin H/MNAT1) were 7.89, 7.80 and 7.26, respectively.

By pKi is commonly meant the Ki on a negative log10 scale, so that one unit is a factor of ten.
